This is an account of results in PubChem BioAssay AID1347416 (National Center for Advancing Translational Sciences (NCATS), 2020).

Structures are written as SMILES. The entries are a selection whose mix differs from that of the whole data set. Some of these compounds have results that are not shown, active ones among them. Records with an inconclusive call do not appear. The source made the active and inactive calls. Calls come from the whole dose curve; as a rule, active = well fitted inhibition curve with a large enough effect; inconclusive = small, poorly fitted or top-dose-only effect; inactive = no such curve, though single readings can be large or run the other way.
Potency is the fitted concentration of half-maximal effect.

This experiment can be described thus: qHTS Validation assay for Inhibitors of Plasmodium falciparum Dd2 growth in vitro. Note: nearly all actives have a fitted effect of over 70% in size. The note with it: P. falciparum Dd2 in RBCs, SYBR Green growth, 72 h. The text has this:
Malaria, a parasitic disease spread to humans through the bite of a Plasmodium infected Anopheles mosquito, continues to be a global health burden affecting millions of people, with an estimated 228 million cases and 405,000 deaths in 2018. Concerns about safety and limitations of current antimalarial treatments strongly emphasize the need to develop new therapeutic options. The scarce number of chemotypes and validated drug targets with efficacy against the liver stage, have hindered development of new antimalarials. To address this, a chemoprophylactic drug discovery effort was conducted through a combined phenotypic high-throughput asexual blood stage and liver stage screen, providing a robust foundation to identify liver-stage active lead chemotypes. Compounds were initially screened against Plasmodium falciparum Dd2 strain parasites using a in vitro SYBRGreen-1 based 72 hr proliferation assay to identify novel chemotypes to advance to liver stage assays. NIH/NCATS Early Translation Branch Assay Submitter (PI): Anton Simeonov Ph.D. […]
In general terms: In qHTS, concentration-response curves come from the screen itself.
In the case of `CN1CCCC(OC(=O)C(O)(c2ccccc2)c2ccccc2)C1` (stereo unspecified), the Potency is active: 13.3 µM.
